This is an account of results in ChEMBL document CHEMBL1134582 (J Med Chem, 2001).

By UniProt entry, the sequences of proteins in these tests, tags left out.
UniProt P25099, whole entry: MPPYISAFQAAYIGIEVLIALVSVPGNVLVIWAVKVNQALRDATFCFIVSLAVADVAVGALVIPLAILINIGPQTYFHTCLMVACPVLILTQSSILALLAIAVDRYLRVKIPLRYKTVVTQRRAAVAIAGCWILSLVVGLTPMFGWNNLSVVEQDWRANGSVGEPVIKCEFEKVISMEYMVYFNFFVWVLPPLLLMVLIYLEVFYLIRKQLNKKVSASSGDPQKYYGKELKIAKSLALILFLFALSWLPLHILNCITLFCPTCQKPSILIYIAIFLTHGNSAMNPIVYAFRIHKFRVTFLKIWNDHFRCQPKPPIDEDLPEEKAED

This test has as its target Adenosine receptor A1 (Rattus norvegicus, UniProt P25099). Put plainly: Affinity towards adenosine A1 receptor from rat cortical membranes using [3H]DPCPX.

SMILES strings stand for the structures.

What is called Ki is the dissociation constant of the complex between target and ligand, obtained from inhibition or displacement. Read a low Ki as a stronger hold on the target. Regarding `OC[C@H]1O[C@@H](n2cnc3c(NCc4cccc(I)c4)nc(Cl)nc32)[C@H](O)[C@@H]1O`, the Ki was determined as 710 nM.
